What is called LD50 is the dose expected to kill half of the subjects tested. High values mean lower toxicity, low ones greater toxicity.

These results are taken from US5569670A, “Combination medications containing alpha-lipoic acid and related” (Asta Medica Aktiengesellschaft, priority 1992, dated 1996).

In one data set the test system is rat. It is filed as in vivo.
Another data set concerns mouse. It is filed as in vivo.

Where two headings read alike, the source gives them in different places.

Vitamin E: the LD50 in the data set with rat (i.v.) is recorded as above 1500 mg/kg; in the data set with rat (p.o.), above 5000 mg/kg; in the data set on mouse (i.v.) it was above 2100 mg/kg; in the data set on mouse (p.o.), > 50,000 mg/kg.
